Experimental data: PMC2248718 (The Journal of General Physiology, 2008)

Protein sequences, listed by entry. Tags and fused reporters are not part of them. Lines headed by an entry give the natural chain unless they say otherwise; changes in a name come on top.
UniProt P70170: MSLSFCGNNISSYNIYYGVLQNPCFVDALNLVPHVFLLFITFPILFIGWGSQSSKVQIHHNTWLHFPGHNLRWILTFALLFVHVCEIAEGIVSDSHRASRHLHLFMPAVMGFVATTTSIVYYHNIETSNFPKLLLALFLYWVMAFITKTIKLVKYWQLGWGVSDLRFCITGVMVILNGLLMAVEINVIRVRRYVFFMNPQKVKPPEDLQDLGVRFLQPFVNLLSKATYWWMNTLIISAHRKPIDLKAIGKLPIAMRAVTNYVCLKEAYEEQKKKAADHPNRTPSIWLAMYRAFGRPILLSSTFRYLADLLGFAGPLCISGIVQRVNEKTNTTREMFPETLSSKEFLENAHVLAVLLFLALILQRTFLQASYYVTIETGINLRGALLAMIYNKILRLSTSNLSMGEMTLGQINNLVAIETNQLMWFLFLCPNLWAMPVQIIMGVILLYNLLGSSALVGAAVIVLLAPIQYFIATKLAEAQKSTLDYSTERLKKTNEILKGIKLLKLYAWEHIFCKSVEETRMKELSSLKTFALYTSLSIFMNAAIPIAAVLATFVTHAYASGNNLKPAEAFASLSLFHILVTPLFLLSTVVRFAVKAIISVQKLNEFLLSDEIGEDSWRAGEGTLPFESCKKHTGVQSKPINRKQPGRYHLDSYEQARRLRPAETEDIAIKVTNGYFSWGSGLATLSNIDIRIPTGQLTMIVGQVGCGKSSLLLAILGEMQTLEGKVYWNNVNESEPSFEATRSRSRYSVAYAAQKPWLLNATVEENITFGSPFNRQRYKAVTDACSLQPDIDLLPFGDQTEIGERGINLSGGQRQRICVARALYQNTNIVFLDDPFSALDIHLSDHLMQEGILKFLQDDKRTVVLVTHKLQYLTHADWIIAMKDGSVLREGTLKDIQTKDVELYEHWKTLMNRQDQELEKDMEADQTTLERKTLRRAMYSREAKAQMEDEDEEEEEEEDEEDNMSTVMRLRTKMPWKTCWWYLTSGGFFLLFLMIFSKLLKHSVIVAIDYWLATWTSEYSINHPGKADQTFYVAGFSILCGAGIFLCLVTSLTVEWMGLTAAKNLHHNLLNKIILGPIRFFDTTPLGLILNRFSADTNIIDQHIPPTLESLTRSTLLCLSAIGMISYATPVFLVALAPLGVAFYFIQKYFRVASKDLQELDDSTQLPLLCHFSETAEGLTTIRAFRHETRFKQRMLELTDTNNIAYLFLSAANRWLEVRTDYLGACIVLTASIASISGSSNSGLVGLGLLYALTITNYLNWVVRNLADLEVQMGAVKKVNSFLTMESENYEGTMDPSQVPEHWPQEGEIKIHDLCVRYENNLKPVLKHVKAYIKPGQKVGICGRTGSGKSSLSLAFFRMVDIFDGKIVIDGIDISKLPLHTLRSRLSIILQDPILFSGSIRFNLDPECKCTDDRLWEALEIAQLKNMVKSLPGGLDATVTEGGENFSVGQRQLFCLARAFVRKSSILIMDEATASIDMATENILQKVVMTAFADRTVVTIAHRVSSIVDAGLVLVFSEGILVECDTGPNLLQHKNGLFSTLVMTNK
UniProt Q14654, whole entry, stated change not applied: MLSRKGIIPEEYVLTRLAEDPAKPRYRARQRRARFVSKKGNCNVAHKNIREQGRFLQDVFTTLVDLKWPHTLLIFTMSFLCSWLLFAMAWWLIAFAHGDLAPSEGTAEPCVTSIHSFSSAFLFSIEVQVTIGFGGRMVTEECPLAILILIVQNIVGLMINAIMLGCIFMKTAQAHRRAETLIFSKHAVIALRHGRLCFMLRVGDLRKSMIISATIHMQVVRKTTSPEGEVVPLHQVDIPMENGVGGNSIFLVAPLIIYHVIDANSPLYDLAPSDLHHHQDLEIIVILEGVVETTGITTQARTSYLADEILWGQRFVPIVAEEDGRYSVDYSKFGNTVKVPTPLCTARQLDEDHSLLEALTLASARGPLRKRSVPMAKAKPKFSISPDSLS

Assays:
[1] = target: SUR2A first half deletion (Δ948–954)/Kir6.2 KATP channels expressed in HEK293 cells (UniProt P70170+Q14654, DEL948-954); experiment: Inside-out patch-clamp of first half ED deletion KATP channels; assay type: cell-based; settings: glyburide 10 μM
[2] = target: SUR2A second half deletion (Δ955–962)/Kir6.2 KATP channels expressed in HEK293 cells (UniProt P70170+Q14654, DEL955-962); experiment: Inside-out patch-clamp of second half ED deletion KATP channels; assay type: cell-based; settings: glyburide 10 μM

COc1ccc(Cl)cc1C(=O)NCCc1ccc(S(=O)(=O)NC(=O)NC2CCCCC2)cc1 [glyburide] was tested, and the “Glyburide responsiveness compared with wild type” value [1] was “reduced glyburide responsiveness” and the “Glyburide responsiveness compared with wild type” value [2] was “reduced glyburide responsiveness”.
